Test: Thermal stability by TGA, supported vs. unsupported, evaluation method not marked
Conditions: not supported/neat; no method footnote
Procedure: To test for such influence, adsorption experiments with butylmethylimidazolium acetate [BMIM][OAc] on four different porous silica types was carried out (FIG. 7a, 7b). The silicas had the following pore diameters: PG2000 (pore diameter 2000 Å), PG500 (pore diameter 500 Å), PG75 (pore diameter 75 Å) and MCM-41 (pore diameter 50 Å).
The silicas had the following pore diameters: PG2000 (pore diameter 2000 Å), PG500 (pore diameter 500 Å) and PG75 (pore diameter 75 Å).
Thermal stability was measured by using thermogravimetric analysis (TGA), with isocratic heating at 5° C. min^−1 under an inert nitrogen and/or dried air atmosphere. The decomposition temperatures were determined from both the T5% onset (onset temperature for 5% decomposition) in an isocratic TGA experiment, and from the inflection point (temperature at the inflection point of TGA curve, which indicates the point where the degradation rate is maximum). For T5% onset measurements, thermal stability was determined in a Mettler-Toledo Star^e TGA/DSC unit by heating from 25° C. to 800° C. with a heating rate of 5° C./min under nitrogen. For inflection point measurements, thermal stability was determined using a TA2950 TGA unit by heating from 25° C. to 800° C. with a heating rate of 5° C./min under dried air.

Substance: Choline Acyclovir [Choline Acyclovir [1]]
- Thermal Stability: 122.51 °C

— patent publication US20140309419A1, “METHOD FOR ENHANCING THE THERMAL STABILITY OF IONIC COMPOUNDS” (Danmarks Tekniske Universite, priority 2011, published 2014)
